Measured values as given in patent US20230340491A1, “COMPOSITIONS AND METHODS FOR TREATING METABOLIC AND CARDIOVASCULAR DISEASES” (UNIVERSITY OF ROCHESTER, priority 2020, published 2023).

By UniProt entry, the sequences of proteins in these tests, tags left out. Where a name states a change or a piece, a line headed by the entry shows the natural chain unless it says otherwise.
UniProt O94806: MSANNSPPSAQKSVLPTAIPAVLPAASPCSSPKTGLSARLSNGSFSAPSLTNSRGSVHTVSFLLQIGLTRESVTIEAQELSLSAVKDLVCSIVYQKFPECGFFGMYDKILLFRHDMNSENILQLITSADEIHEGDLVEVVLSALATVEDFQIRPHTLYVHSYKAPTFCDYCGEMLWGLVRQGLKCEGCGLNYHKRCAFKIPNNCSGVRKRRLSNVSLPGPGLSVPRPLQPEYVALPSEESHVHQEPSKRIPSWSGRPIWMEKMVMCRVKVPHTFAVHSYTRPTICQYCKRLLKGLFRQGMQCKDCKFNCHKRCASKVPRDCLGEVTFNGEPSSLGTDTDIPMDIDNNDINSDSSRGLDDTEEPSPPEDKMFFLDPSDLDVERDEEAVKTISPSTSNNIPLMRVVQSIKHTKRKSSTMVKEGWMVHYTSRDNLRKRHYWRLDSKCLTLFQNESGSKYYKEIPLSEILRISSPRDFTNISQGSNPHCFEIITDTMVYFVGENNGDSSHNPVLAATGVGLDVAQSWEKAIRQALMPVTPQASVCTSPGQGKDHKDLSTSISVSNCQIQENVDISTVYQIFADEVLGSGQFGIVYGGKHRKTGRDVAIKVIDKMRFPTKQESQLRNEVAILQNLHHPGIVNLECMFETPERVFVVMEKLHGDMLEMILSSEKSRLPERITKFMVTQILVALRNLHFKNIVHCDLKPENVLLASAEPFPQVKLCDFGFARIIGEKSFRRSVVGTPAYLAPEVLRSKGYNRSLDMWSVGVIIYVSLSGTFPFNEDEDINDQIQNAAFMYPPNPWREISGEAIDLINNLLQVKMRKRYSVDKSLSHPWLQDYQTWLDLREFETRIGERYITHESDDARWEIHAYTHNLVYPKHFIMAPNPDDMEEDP

Legend:
PKD3 = PKD3 (Homo sapiens, UniProt O94806); conditions: read-out: IC50 for PKD3; selectively inhibits PKD3; cited from earlier work
HFD-fed C57BL/6J mice = assay: HFD-induced obesity and NAFLD in C57BL/6J mice treated with CRT0066101; type: in vivo, mouse
Excerpt: The mouse fat and liver tissues from the experimental mice were harvested after oral administration one and a half month.

CC[C@@H](N)CNc1ccnc(-c2cc(-c3cnn(C)c3)ccc2O)n1 [CRT0066101]
IC50 (PKD3): 2 nM | body weight growth curve during treatment (FIG. 2A) (HFD-fed C57BL/6J mice; HFD 6 weeks, then 10 mg/kg/day oral gavage on continued HFD, vs vehicle (H2O)): greatly promoted body weight loss | time after stopping administration until body weight reached the level of vehicle-treated mice (FIG. 2B) (HFD-fed C57BL/6J mice; after stopping CRT0066101, HFD-fed mice): around 7 weeks | body weight after treatment, growth curve (FIG. 3A) (WD-fed ApoE-/- mice; 8 weeks WD, then 100 ug/10 g per day oral on continued WD, vs vehicle): rapidly decreased | NAFLD activity score (NAS) (FIG. 3F) (WD-fed ApoE-/- mice; H&E, Sirius Red, Oil Red O staining): alleviated
